Data: patent publication US20210253598A1, “ARYL ANNULATED MACROCYCLIC INDOLE DERIVATIVES” (priority 2017, published 2021)
Structures can show the parent of a compound that is named as a salt. Where two headings read alike, the source gives them in different places. One block for each compound: values may come before it.

Assays:
MCL-1 = MCL-1 (Homo sapiens, UniProt Q07820, K194A/K197A/R201A); experiment: Protein-protein interaction assay MCL-1/Noxa BH3 peptide, TR-FRET (MCL-1 assay, Assay 1); type: binding; conditions: MCL-1 Assay [M] (median), MBP-MCL-1 / Noxa BH3 peptide
Method: The dose-dependent inhibition by the compounds described in this invention of the interaction between MCL-1 and the BH3 domain of Noxa (both human) was determined using a steady state binding competition assay with time-resolved fluorescence energy transfer (TR-FRET) readout. For that purpose MCL-1 (amino acids 173-321, N-terminal fused to Maltose Binding Protein (MBP), SEQ ID 1) and a synthetic Noxa BH3-derived peptide of sequence Biotin-PEG2-PEG2-PAELEVE-Nva-[…]-amide (SEQ ID 2) served as protein receptor and tracer ligand respectively. The MBP-MCL-1 was purchased from Beryllium (Bedford, Mass., USA). The expression and purification of this protein construct has been described elsewhere (DOI:10.1371/journal.pone.0125010). The Noxa BH3-derived peptide can be obtained from e.g. Biosyntan (Berlin, Germany).
For that, 100-fold concentrated DMSO solutions were prepared by serial dilutions (1:3.4) of a 2 mM stock solution in a clear, 384-well microtiter plate (Greiner Bio-One, Frickenhausen, Germany). From there, 50 nl were transferred in a dark test plate (Greiner Bio-One, Frickenhausen, Germany). The assay was initiated by addition of 2 μl of a 2,5-fold concentrated MBP-MCL-1 solution (usually for a 1 nM end concentration in 5 μl reaction volume) in aqueous assay buffer [50 mM Tris/HCl pH 7, 100 mM sodium chloride (NaCl), 50 mM potassium fluoride (KF), 0.005% Tween-20, 2 mM DTT, 0.1% bovine gamma globulin (BGG)] to the compounds in the assay plate. This was followed by a 10-minute incubation step at 22° C. for pre-equilibration of the putative complex between MBP-MCL-1 and the compounds.
The mixture was incubated in the dark for one hour at 22° C. and then overnight at 4° C. The formation of MCL-1/Noxa complexes was determined by measuring the resonance energy transfer of the anti-MBP-Eu-cryptate antibody to the streptavidin-XL665 present in the reaction. For that purpose, the fluorescence emission at 620 nm and 665 nm after excitation at 330-350 nm was measured in a TR-FRET measuring instrument, for instance a Rubystar or a Pherastar (both from BMG Lab Technologies, Offenburg, Germany) or a Viewlux (Perkin-Elmer). The ratio of the emission at 665 nm and at 622 nm was used as indicator of the amount of MCL-1/NOXA complexes present.
The resulting data (ratio) were normalized, taking 0% inhibition as the mean value of control measurements (usually 32 data points) where all reagents were included. In this case 50 nl DMSO were used instead of compounds. […] IC50 values were determined by regression analysis based on a 4 parameter equation (minimum, maximum, IC50, Hill; Y=Max+(Min−Max)/(1+(X/IC50)^Hill) using the Screener Software (Genedata).

SUDHL5 = experiment: Induction of cytotoxicity in SUDHL5 cells, CellTiter-Glo (Assay 6); type: cell-based; conditions: SUDHL5, 5 hours incubation, median, read-out: Cytotox SUDHL5 [M] (median)
Method: (§1) Induction of Cytotoxicity Upon Treatment of Cells with Selected Compounds
(§2) In principle, compounds that induce apoptosis will concomitantly induce cell cytotoxicity. Therefore, cytotoxicity assays were run in parallel in SUDHL5 and SUDHL10 cells.
(§3) As a control, medium without cells was also added to the plate. Cells were incubated in a humidified incubator at 37° C. overnight. […] Rim wells were excluded. The cells were incubated for 5 hours in a humidified incubator at 37° C. After this incubation, 30 μl of CellTiter-Glo® Luminescent Cell Viability reagent (Promega, G7573) was added to each well using the Multidrop Combi Reagent Dispenser, followed by 15 minutes incubation on a shaker at room temperature. Finally, luminescence was read at 0.1 ms, with a gain of 3000 using the PHERAstar FS microplate reader (BMG Labtech).

SUDHL10 = experiment: Induction of cytotoxicity in SUDHL10 cells, CellTiter-Glo (Assay 6); type: cell-based; conditions: Homo sapiens, SU-DHL10, 5 h, SUDHL10, 5 hours incubation, median, read-out: Cytotox SUDHL10 [M] (median)
Method: as §1, §2, §3

SMILES: Cc1c2c(nn1C)COCc1ncccc1Cn1c(C(=O)O)c(CCCOc3cccc4ccccc34)c3cccc-2c31 (racemic) [Example 7, (rac)-4,5-Dimethyl-17-[3-(naphthalen-1-yloxy)propyl]-5,7,9,14-tetrahydropyrazolo[4′,3′:9,10]-pyrido[2′,3′:3,4][1,6]oxazacycloundecino[8,7,6-hi]indole-16-carboxylic Acid]
IC50 (MCL-1): 1.7e-09 M

IC50 (MCL-1): 2.8e-09 M
SMILES: Cc1c2c(nn1C)COCc1nc3ccccc3nc1Cn1c(C(=O)O)c(CCCOc3cccc4ccccc34)c3cccc-2c31 (racemic) [Example 10, (rac)-4,5-Dimethyl-19-[3-(naphthalen-1-yloxy)propyl]-5,7,9,16-tetrahydroindolo[1′,7′:6,7,8]-pyrazolo[4′,3′:9,10][1,6]oxazacycloundecino[3,4-b]quinoxaline-18-carboxylic Acid]

SMILES: Cc1c2c(nn1C)CNCc1ccccc1Cn1c(C(=O)O)c(CCCOc3cccc4ccccc34)c3cccc-2c31 (racemic) [Example 11, (rac)-4,5-Dimethyl-17-[3-(naphthalen-1-yloxy)propyl]-7,8,9,14-tetrahydro-5H-indolo[1,7-bc]pyrazolo[4,3-e][2,8]benzodiazacycloundecine-16-carboxylic Acid]
IC50 (MCL-1): 5.4e-09 M

SMILES: CCc1nn(C)c2c1-c1c(Cl)ccc3c(CCCOc4cccc5cc(F)ccc45)c(C(=O)O)n(c13)Cc1ccccc1COC2 (racemic) [Example 57, (rac)-3-Chloro-4-ethyl-17-{3-[(6-fluoronaphthalen-1-yl)oxy]propyl}-6-methyl-6,7,9,14-tetrahydro-indolo[7,1-fg]pyrazolo[3,4-d][2,8]benzoxazacycloundecine-16-carboxylic Acid]
IC50 (SUDHL5; Homo sapiens, SU-DHL-5, 5 h): 1.7e-06 M

SMILES: Cc1c2c(nn1C)COCc1ccccc1Cn1c(C(=O)O)c(CCCOc3cccc4ccccc34)c3ccc(F)c-2c31 (racemic) [Example 67, (rac)-15-Fluoro-13,14-dimethyl-1-(3-(naphthalen-1-yloxy)propyl)-4,9,11,13-tetrahydrobenzo[3,4]pyrazolo[4′,3′:9,10][1,6]oxaazacycloundecino[8,7,6-hi]indole-2-carboxylic Acid]
IC50 (MCL-1): 1.7e-09 M

SMILES: CCc1c2c(nn1C)COCc1ccccc1Cn1c(C(=O)O)c(CCCOc3cccc4ccccc34)c3ccc(F)c-2c31 (racemic) [Example 70, (rac)-14-Ethyl-15-fluoro-13-methyl-1-(3-(naphthalen-1-yloxy)propyl)-4,9,11,13-tetrahydrobenzo[3,4]pyrazolo[4′,3′:9,10][1]oxa[6]azacycloundecino[8,7,6-hi]indole-2-carboxylic Acid]
IC50 (SUDHL5): 1.7e-06 M

IC50 (MCL-1): 2.8e-09 M
SMILES: CCc1c2c(nn1C)COCc1ccccc1Cn1c(C(=O)O)c(CCCOc3cccc4c3CCCC4)c3ccc(F)c-2c31 (racemic) [Example 77, (rac)-14-Ethyl-15-fluoro-13-methyl-1-(3-((5,6,7,8-tetrahydronaphthalen-1-yl)oxy)propyl)-4,9,11,13-tetrahydrobenzo[3,4]pyrazolo[4′,3′:9,10][1]oxa[6]azacycloundecino[8,7,6-hi]indole-2-carboxylic Acid]

SMILES: CCc1nn(C)c2c1-c1c(F)ccc3c(CCCOc4cccc5cc(F)ccc45)c(C(=O)O)n(c13)Cc1ccccc1COC2 (racemic) [Example 90, (rac)-14-Ethyl-15-fluoro-1-(3-((6-fluoronaphthalen-1-yl)oxy)propyl)-12-methyl-4,9,11,12-tetrahydrobenzo[3,4]pyrazolo[4′,3′:9,10][1,6]oxaazacycloundecino[8,7,6-hi]indole-2-carboxylic Acid]
IC50 (SUDHL10): 3.5e-06 M | IC50 (SUDHL5; Homo sapiens, SU-DHL-5, 5 h): 1.7e-06 M

SMILES: Cc1c2c(nn1C)COCc1cccnc1Cn1c(C(=O)O)c(CCCOc3cccc4ccccc34)c3ccc(Cl)c-2c31 (single isomer, unassigned; enantiomer 1) [Example 40, 3-Chloro-4,5-dimethyl-17-[3-(naphthalen-1-yloxy)propyl]-5,7,9,14-tetrahydropyrazolo-[4′,3′:9,10]pyrido[3′,2′:3,4][1,6]oxazacycloundecino[8,7,6-hi]indole-16-carboxylic acid-N-ethylethanamine Salt (Enantiomer 1)]
IC50 (MCL-1): 2.8e-09 M

SMILES: CCc1c2c(nn1C)COCc1ccccc1Cn1c(C(=O)O)c(CCCOc3cccc4cc(F)ccc34)c3ccc(Cl)c-2c31 (single isomer, unassigned; enantiomer 1) [Example 55, (−)-3-Chloro-4-ethyl-17-{3-[(6-fluoronaphthalen-1-yl)oxy]propyl}-5-methyl-5,7,9,14-tetrahydro-indolo[7,1-fg]pyrazolo[3,4-d][2,8]benzoxazacycloundecine-16-carboxylic Acid N-ethylethanamine Salt (Enantiomer 1)]
IC50 (MCL-1): 1.1e-09 M
